Assays:
[1] = tested on: chronic hepatitis B; experiment: Intermittent administration of Pegberon with ETV in chronic hepatitis B patients (Example 2); assay type: in vivo, human; conditions: one patient
Protocol: The process was repeated in the next stage.
The nucleotide analogue ETV was administrated orally in 0.5 mg per day.
It is shown that the recovery of immune clearance capability may have achieved in the 5 weeks during which the administration is discontinued.
The nucleotide analogue ETV was administrated in 0.5 mg per day.

[2] = tested on: chronic hepatitis B; conditions: e-antigen-positive chronic hepatitis B patients; cited from earlier work
[3] = tested on: chronic hepatitis B; experiment: Conventional continuous interferon therapy of chronic hepatitis B, surface antigen-time curve (Example 1); assay type: in vivo, human; conditions: 180 micrograms per week, continuous for 48 weeks
Protocol: These patients were treated continuously according to the treatment scheme stated in the drug instructions. The treatment scheme of Pegasys: continuous treatment was performed with solely Pegasys in a dosage of 180 micrograms per week for 48 weeks.
Continuous use of interferon for more than 12 weeks or more than 24 weeks may cause partial immune suppression and exhaustion of immune cells, which may lead to poor follow-up treatment effects.

Pegberon: Y-type 40 Kd PEG modified peginterferon α 2b, Amoytop
decline in surface antigens, Week 53 to Week 65 compared with Week 36 to Week 48 ([1]; Pegberon 180 micrograms per week Week 0-48, suspended, resumed Week 53-61, ETV 0.5 mg per day since Week 49): significantly faster
surface antigens ([1]; Week 76-80, Pegberon 180 micrograms per week intermittently, combined with ETV 0.5 mg per day): less than 0.05
e-antigen seroconversion [2]: about 30%
decline of surface antigens [3]: faster decline in the early stage and slower decline in the later stage
